Patent US8338465B2, “Cyclic carboxylic acid rhodanine derivatives for the treatment and prevention of tuberculosis” (priority 2006, dated 2012)

System: Mycobacterium bovis var. Bacille Calmette Guerin (BCG)
Type: cell-based
Settings: mildly acidic pH; 0.5 mM NaNO2 (pH 5.5) or 0.05 mM NaNO2 (pH 4.5)

O=C(O)c1cccc(N2C(=O)C(=Cc3ccc(-c4ccccc4Cl)o3)SC2=S)c1 (single isomer, unassigned) [Mycopyrin 5, 3-[5[[5-(2-chlorophenyl)-2-furanyl]methylene]-4-oxo-2-thioxo-3-thiazolidinyl]benzoic acid]
killing of non-replicating BCG together with nitrite: in synergy with nitrite
